The subject of assay [1] is THP-1 cells. Kind of assay: SYK-dependent TNF-α release assay (IgG stimulation), ELISA. To be noted: human IgG-coated plate, 18 hours, SYK-dependent pathway, read-out: TNF-α release inhibition, IgG stimulation (IC50 nM). Type of assay: cell-based.
Assay [2] deals with full-length human SYK (Homo sapiens (Human), UniProt P43405). As to the kind of experiment: Inhibition of enzymatic SYK kinase activity (LANCE Ulight-TK peptide, Eu-antibody, 665 nm emission). To be noted: read-out: SYK (IC50 nM); ATP at Km (15 uM).

The text below walks through data of patent US8871778B2, “Substituted pyrimidine compounds and their use as SYK inhibitors” (Genosco, priority 2012, dated 2014).

Consider `Cc1cn(-c2ccnc(Nc3ccc4c(ccn4C)c3)n2)cc1CN1CC(O)C1` [Compound 52, 1-((4-methyl-1-(2-(1-methyl-1H-indol-5-ylamino)pyrimidin-4-yl)-1H-pyrrol-3-yl)methyl)azetidin-3-ol], for which the IC50 in assay [1] is 94 nM. Regarding `Cc1nn(-c2ccnc(Nc3ccc4c(c3)c(Cl)cn4C)n2)cc1CN1CC(O)C1` [Compound 144, 1-((1-(2-(3-Chloro-1-methyl-1H-indol-5-ylamino)pyrimidin-4-yl)-3-methyl-1H-pyrazol-4-yl)methyl)azetidin-3-ol], the 50% inhibitory concentration (IC50) in assay [2] is 1.8 nM. Turning to `Cc1nn(-c2ccnc(Nc3ccc4c(cnn4C)c3)n2)cc1CN1CC(O)C1` [Compound 160, 1-((3-Methyl-1-(2-(1-methyl-1H-indazol-5-ylamino)pyrimidin-4-yl)-1H-pyrazol-4-yl)methyl)azetidin-3-ol], in assay [2], the IC50 was 15.2 nM.
